58 compounds from patent US10351558B2, “Factor IXa inhibitors” (Merck Sharp & Dohme Corp., priority 2015, dated 2019) can be followed below.

Protein sequences, listed by entry. Tags and fused reporters are not part of them. Residues count along the entry.
UniProt P00740, 227-461: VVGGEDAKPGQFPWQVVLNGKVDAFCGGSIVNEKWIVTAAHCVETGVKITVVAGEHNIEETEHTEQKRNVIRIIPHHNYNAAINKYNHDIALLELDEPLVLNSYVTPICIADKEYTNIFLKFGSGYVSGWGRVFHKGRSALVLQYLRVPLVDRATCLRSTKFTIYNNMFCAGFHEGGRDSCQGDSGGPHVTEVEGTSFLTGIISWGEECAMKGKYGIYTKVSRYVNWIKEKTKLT
UniProt P00740, 47-191 partner: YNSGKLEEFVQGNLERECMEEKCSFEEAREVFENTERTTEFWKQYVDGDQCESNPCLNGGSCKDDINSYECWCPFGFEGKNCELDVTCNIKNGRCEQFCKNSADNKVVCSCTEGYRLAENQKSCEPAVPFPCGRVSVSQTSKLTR

One may read the IC50 as the concentration that inhibits the measured activity by half. Low readings indicate higher potency, high ones lower potency.

For this assay, the target named is hFIXa (Homo sapiens (Human), UniProt P00740). The experiment in a line: Determination of inhibitory activity against Factor IXa (cleavage of fluorescent peptide CH3SO2-D-CHG-Gly-Arg-AFC). Type of assay: biochemical.

Take `Cc1ccc2c(c1)nc1n2CC(NC(=O)c2ccc(-n3cnc(C)n3)cc2Cl)(c2ccc(F)cc2)CC1(F)F` (single isomer, unassigned) [Example 104, 2-chloro-N-(4,4-difluoro-2-(4-fluorophenyl)-7-methyl-1,2,3,4-tetrahydrobenzo[4,5]imidazo[1,2-a]pyridin-2-yl)-4-(3-methyl-1H-1,2,4-triazol-1-yl)benzamide]: half-maximal inhibition (IC50) was put at 39.3 nM. The value for `CC(=O)c1c2n(c3ccc(C)cc13)C[C@@](NC(=O)c1ccc(-n3cnnc3)cc1Cl)(c1ccccc1)CC2` (stereo in doubt) [Example 135, N-(10-acetyl-2-methyl-7-phenyl-6,7,8,9-tetrahydropyrido[1,2-a]indol-7-yl)-2-chloro-4-(4H-1,2,4-triazol-4-yl)benzamide] was 2.01 nM; that for `Cc1ccc(O)c2c3c(nn12)CCC(C)(NC(=O)c1ccc(-n2cnnc2)cc1)C3` (stereo not shown) [Example 1] was 507 nM. Next, `Cc1ccc2c3c(nn2c1)CCC(C)(NC(=O)c1ccc(-n2cnnc2)cc1Cl)C3` (stereo not shown) [Example 2, 2-Chloro-N-(2,8-dimethyl-1,2,3,4-tetrahydropyrido[1,2-b]indazol-2-yl)-4-(4H-1,2,4-triazol-4-yl)benzamide]: 63.3 nM; `Cc1ccc2c3c(nn2c1)CCC(C)(NC(=O)c1ccc(-n2cnc4ncccc42)cc1Cl)C3` (stereo not shown) [Example 4]: 13.7 nM; `Cc1cc(O)c2c3c(nn2c1)CCC(NC(=O)c1ccc(-n2cnnc2)cc1Cl)(c1ccccc1)C3` (stereo not shown) [Example 8, 2-Chloro-N-(10-hydroxy-8-methyl-2-phenyl-1,2,3,4-tetrahydropyrido[1,2-b]indazol-2-yl)-4-(4H-1,2,4-triazol-4-yl)benzamide]: 9.79 nM. Regarding `Cc1ccc2c3c(nn2c1)CCC(C)(NC(=O)c1c(Cl)cc(-n2cc(CCO)nn2)cc1Cl)C3` (stereo not shown) [Example 11], the IC50 worked out at 16.3 nM.

With `Cc1ccc2c3c(nn2c1)CCC(CO)(NC(=O)c1c(Cl)cc(-n2cnn(C)c2=O)cc1Cl)C3` (stereo not shown) [Example 12], the IC50 stood at 7.1 nM. The value for `Cc1cc(O)c2c3c(nn2c1)CCC(NC(=O)c1ccc(-n2cnc(C)n2)cc1Cl)(c1ccccc1)C3` (stereo not shown) [Example 14] was 12.1 nM; that for `Cc1cc(O)c2c3c(nn2c1)CCC(NC(=O)c1c(C)cc(-n2cnnc2)cc1Cl)(c1ccccc1)C3` (stereo not shown) [Example 15] was 4.81 nM.

The compound `Cc1ccc2c3c(nn2c1)CCC(NC(=O)c1ccc(-n2cnc(C)n2)cc1Cl)(c1ccc(F)cc1)C3` (stereo not shown) [Example 17] gave an IC50 of 8.07 nM.

Compound `Cc1cc2c3c(nn2cc1C)CCC(C)(NC(=O)c1ccc(-n2cnc4ccc(Cl)cc42)cc1Cl)C3` (stereo not shown) [Example 18] returned an IC50 of 16.3 nM. Next, `CNC(=O)c1ccc2ncn(-c3ccc(C(=O)NC4(C)CCc5nn6cc(C)ccc6c5C4)c(Cl)c3)c2c1` (stereo not shown) [Example 19]: 9.13 nM; `CNC(=O)c1ccc2c(c1)ncn2-c1ccc(C(=O)NC2(C)CCc3nn4cc(C)ccc4c3C2)c(Cl)c1` (stereo not shown) [Example 20]: 10.5 nM. Next, `Cc1ccc(O)c2c3c(nn12)CC[C@@](C)(NC(=O)c1ccc(-n2cnc4ccc(C(N)=O)cc42)cc1Cl)C3` [Example 22]: 2.38 nM. The value for `Cc1ccc(O)c2c3c(nn12)CC[C@@](C)(NC(=O)c1ccc(-n2cnc4cc(C(N)=O)ccc42)cc1Cl)C3` [Example 23] was 2.44 nM; that for `Cc1ccc(O)c2c3c(nn12)CC[C@@](C)(NC(=O)c1ccc(-n2cnc4cc(C(=O)O)ccc42)cc1Cl)C3` [Example 24] was 2.78 nM; that for `Cc1ccc(O)c2c3c(nn12)CC[C@@](C)(NC(=O)c1ccc(-n2cnc4ccc(C(=O)O)cc42)cc1Cl)C3` [Example 25] was 4.88 nM. As for `COc1cc2ncn(-c3ccc(C(=O)NC4(C)CCc5nn6cc(C)ccc6c5C4)c(Cl)c3)c2cc1OC` (stereo not shown) [Example 26, 2-Chloro-4-(5,6-dimethoxy-1H-benzo[d]imidazol-1-yl)-N-(2,8-dimethyl-1,2,3,4-tetrahydropyrido[1,2-b]indazol-2-yl)benzamide], inhibition was half-maximal at 3.56 nM (IC50). The value for `Cc1ccc2c3c(nn2c1)CCC(NC(=O)c1ccc(-n2cnc(C)n2)cc1Cl)(c1cn(C(C)C)nn1)C3` (stereo not shown) [Example 27] was 17.9 nM; that for `Cc1ccc2c3c(nn2c1)CCC(NC(=O)c1ccc(-n2cnc(C)n2)cc1Cl)(c1cccc(Cl)c1)C3` (stereo not shown) [Example 28] was 2.63 nM; that for `Cc1ccc2c3c(nn2c1)CCC(NC(=O)c1ccc(-n2cnc(C)n2)cc1Cl)(c1ccc(F)c(F)c1)C3` (stereo not shown) [Example 29] was 16 nM.

The compound `Cc1cc(O)c2c3c(nn2c1)CCC(NC(=O)c1c(Cl)cc(-n2cnnc2)cc1Cl)(c1ccccc1)C3` (stereo not shown) [Example 30] came in with an IC50 of 3.65 nM. The value for `Cc1ccc2c3c(nn2c1)CCC(NC(=O)c1c(Cl)cc(-n2cnnc2)cc1Cl)(c1cccc(F)c1)C3` (stereo not shown) [Example 31] was 6.95 nM; that for `Cc1ncn(-c2cc(Cl)c(C(=O)NC3(c4ccccc4)CCc4nn5cc(F)ccc5c4C3)c(Cl)c2)n1` (stereo not shown) [Example 32] was 17.7 nM; that for `CNC(=O)c1ccc2ncn(-c3ccc(C(=O)N[C@]4(C)CCc5nn6c(C)ccc(O)c6c5C4)c(Cl)c3)c2c1` [Example 33] was 6.92 nM. The value for `CNC(=O)c1ccc2c(c1)ncn2-c1ccc(C(=O)N[C@]2(C)CCc3nn4c(C)ccc(O)c4c3C2)c(Cl)c1` [Example 34] was 5.34 nM; that for `COC(=O)c1ccc2c(c1)ncn2-c1ccc(C(=O)N[C@]2(C)CCc3nn4c(C)ccc(O)c4c3C2)c(Cl)c1` [Example 35] was 5.96 nM. Regarding `COC(=O)c1ccc2ncn(-c3ccc(C(=O)N[C@]4(C)CCc5nn6c(C)ccc(O)c6c5C4)c(Cl)c3)c2c1` [Example 36], the IC50 was determined as 11.1 nM. Compound `Cc1cc(O)c2c3c(nn2c1)CCC(NC(=O)c1c(Cl)cc(-n2cnc(C)n2)cc1Cl)(c1ccccc1)C3` (stereo not shown) [Example 38] yielded an IC50 of 10.9 nM. Next, `CCn1cc(C2(NC(=O)c3c(Cl)cc(-n4cnc(C)n4)cc3Cl)CCc3nn4cc(C)ccc4c3C2)nn1` (stereo not shown) [Example 41]: 7.84 nM; `COc1cccc(C2(NC(=O)c3c(Cl)cc(-n4cnc(C)n4)cc3Cl)CCc3nn4cc(C)ccc4c3C2)c1` (stereo not shown) [Example 42]: 2.92 nM. The value for `Cc1ccc2c3c(nn2c1)CCC(NC(=O)c1c(Cl)cc(-n2cnc(C)n2)cc1Cl)(c1cn(C2CC2)nn1)C3` (stereo not shown) [Example 43] was 10.3 nM; that for `CCCn1cc(C2(NC(=O)c3c(Cl)cc(-n4cnc(C)n4)cc3Cl)CCc3nn4cc(C)ccc4c3C2)nn1` (stereo not shown) [Example 45] was 7.8 nM.

Regarding `Cc1ccc2c3c(nn2c1)CCC(NC(=O)c1ccc(-n2cnc(C)n2)cc1Cl)(c1cccc(C(F)(F)F)c1)C3` (stereo not shown) [Example 46], it took 4.84 nM to reach half-maximal inhibition (IC50). Compound `Cc1ncn(-c2cc(Cl)c(C(=O)NC3(c4cccc(Cl)c4)CCc4nn5cc(F)ccc5c4C3)c(Cl)c2)n1` (stereo not shown) [Example 49] had an IC50 of 17.3 nM. As to `Cc1ccc2c3c(nn2c1)CCC(NC(=O)c1c(Cl)cc(-n2cnc(C)n2)cc1Cl)(c1cn(C2(C)CC2)nn1)C3` (stereo not shown) [Example 50], the IC50 is 11.3 nM. The value for `Cc1cc(O)c2c3c(nn2c1)CCC(NC(=O)c1c(Cl)cc(-n2cc(CCO)nn2)cc1Cl)(c1ccccc1)C3` (stereo not shown) [Example 51] was 5.31 nM; that for `Cc1ccc(O)c2c3c(nn12)CC[C@@](C)(NC(=O)c1ccc(-n2cnc4cc(C(=O)N5CC(O)C5)ccc42)cc1Cl)C3` [Example 52] was 16.1 nM; that for `Cc1ccc(O)c2c3c(nn12)CC[C@@](C)(NC(=O)c1ccc(-n2cnc4ccc(C(=O)N5CC(O)C5)cc42)cc1Cl)C3` [Example 53] was 4.03 nM. Next, `Cc1ccc2c(c1)nc1n2C[C@](C)(NC(=O)c2ccc(-n3cnnc3)cc2Cl)CC1` [Example 55]: 36.6 nM; `Cc1ccc2c(c1)nc1n2C[C@](C)(NC(=O)c2ccc(-n3cnc4cnccc43)cc2Cl)CC1` [Example 56]: 13.8 nM. In turn, `Cc1ccc2c(c1)nc1n2C[C@@](NC(=O)c2ccc(-n3cnnc3)cc2Cl)(c2ccccc2)CC1` [Example 57] yielded an IC50 of 1.42 nM. The value for `Cc1ccc2c(c1)nc1n2C[C@@](NC(=O)c2ccc(-n3cncn3)cc2Cl)(c2ccccc2)CC1` [Example 58] was 12.9 nM; that for `Cc1ccc2c(c1)nc1n2C[C@@](NC(=O)c2ccc(-n3cnnc3)cc2Cl)(c2cccnc2)CC1` [Example 59] was 12.5 nM; that for `Cc1ccc2c(c1)nc1n2C[C@@](NC(=O)c2ccc(-n3cncn3)cc2Cl)(c2ccsc2)CC1` [Example 60] was 5.65 nM.

In turn, `Cc1ccc2c(c1)nc1n2C[C@@](NC(=O)c2ccc(-c3cncnc3)cc2Cl)(c2ccccc2)CC1` [Example 61] gave an IC50 of 5.55 nM. Compound `Cc1ccc2c(c1)nc1n2C[C@@](NC(=O)c2ccc(-n3cnc(C)c3)cc2Cl)(c2ccccc2)CC1` [Example 62] yielded an IC50 of 19.3 nM. Next, `CCc1ccc2c(c1)nc1n2CC(NC(=O)c2ccc(-n3cnnc3)cc2Cl)(c2ccccc2)CC1` (stereo not shown) [Example 63]: 18.9 nM. The value for `Cc1cc2nc3n(c2cc1C)C[C@@](NC(=O)c1ccc(-n2cnnc2)cc1Cl)(c1ccccc1)CC3` [Example 65] was 2.72 nM; that for `Cc1ccc2c(c1)nc1n2C[C@@](NC(=O)c2ccc(-n3cnc(C)n3)cc2Cl)(c2cccnc2)CC1` [Example 66] was 17.7 nM. The value for `Cc1cc2nc3n(c2cc1F)C[C@@](NC(=O)c1ccc(-n2cnnc2)cc1Cl)(c1ccccc1)CC3` [Example 68] was 12.7 nM; that for `Cc1ccc2c(c1)nc1n2CC(NC(=O)c2ccc(-n3cnnc3)cc2Cl)(c2cccc(F)c2)CC1` (stereo not shown) [Example 69] was 4.21 nM. Take `Cc1ccc2c(c1)nc1n2C[C@@](NC(=O)c2ccc(-n3cnc(C)n3)cc2Cl)(c2ccsc2)CC1` [Example 70]: the IC50 turned out to be 9.97 nM.

The compound `O=C(N[C@]1(c2ccccc2)CCc2nc3cc(Cl)ccc3n2C1)c1ccc(-n2cnnc2)cc1Cl` [Example 71] had an IC50 of 15.2 nM. Next, `Cc1ccc2c(c1)nc1n2C[C@](C)(NC(=O)c2ccc(-n3cnc4cc(Cl)ccc43)cc2Cl)CC1` [Example 72]: 16.1 nM; `O=C(N[C@]1(c2ccccc2)CCc2nc3ccc4cn[nH]c4c3n2C1)c1ccc(-n2cnnc2)cc1Cl` [Example 73]: 6.35 nM. The value for `Cc1ccc2c(c1)nc1n2C[C@@](NC(=O)c2c(C)cc(-n3cnc(C)n3)cc2Cl)(c2ccccc2)CC1` [Example 74] was 10.4 nM.
